According to US20120302748A1, “TREATMENT OR PROPHYLAXIS OF PROLIFERATIVE CONDITIONS” (THE UNIVERSITY COURT OF THE UNIVERSITY OF DUNDEE, priority 2009, published 2012):

Biological target: T1, CYP1B1 (Homo sapiens, UniProt Q16678)
T1 sequence (Q16678 1-543): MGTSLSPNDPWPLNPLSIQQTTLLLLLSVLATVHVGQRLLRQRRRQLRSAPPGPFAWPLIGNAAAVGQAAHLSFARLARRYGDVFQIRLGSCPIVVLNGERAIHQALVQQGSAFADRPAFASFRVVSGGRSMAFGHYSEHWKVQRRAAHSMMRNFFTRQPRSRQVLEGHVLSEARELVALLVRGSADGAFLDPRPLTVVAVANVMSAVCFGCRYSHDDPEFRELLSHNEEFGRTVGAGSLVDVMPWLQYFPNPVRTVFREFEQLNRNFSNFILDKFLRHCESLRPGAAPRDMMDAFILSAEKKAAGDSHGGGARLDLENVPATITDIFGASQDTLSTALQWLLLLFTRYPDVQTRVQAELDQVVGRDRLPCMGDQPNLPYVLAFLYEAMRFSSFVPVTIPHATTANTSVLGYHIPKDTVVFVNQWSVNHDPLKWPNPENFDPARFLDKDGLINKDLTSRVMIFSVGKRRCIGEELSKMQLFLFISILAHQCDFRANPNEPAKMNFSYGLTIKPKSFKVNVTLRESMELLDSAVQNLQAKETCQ
Experiment: CYP1B1 substrate prediction model (Gaussian Kernel weighted k-NN)
Conditions: predicted versus actual

## O=c1cc(-c2ccccc2)oc2c1ccc1ccccc12 [α-napthoflavone, α-naphthoflavone]
  % CYP1B1 substrate inhibition accuracy: 93%
